From patent US20120277211A1, “METHODS AND COMPOSITIONS FOR THE TREATMENT OF PSYCHOTIC DISORDERS THROUGH THE IDENTIFICATION OF THE SULT4A1-1 HAPLOTYPE” (priority 2009, published 2012)
Read-outs that look alike come from different tables or passages of the source. Marks after values point to notes of the source that are not given here.

Test system: schizophrenia patients

**Q.** How did the “HR, discontinuation due to TAEs” value (SULT4A1-1 positive olanzapine / SULT4A1-1 negative olanzapine) turn out when `Cc1cc2c(s1)Nc1ccccc1N=C2N1CCN(C)CC1` [Olanzapine] was run?
**A.** The value was 0.67^b.

**Q.** `Cc1nc2n(c(=O)c1CCN1CCC(c3noc4cc(F)ccc34)CC1)CCCC2` [Risperidone] was tested. Which “HR, discontinuation due to treatment emergent side effects” value (SULT4A1-1 positive risperidone / SULT4A1-1 positive all other drugs) did it give?
**A.** Its value is 0.73^a.

**Q.** What about the “HR, discontinuation due to treatment emergent side effects” value (Unsegmented risperidone / Unsegmented all other drugs) of the same molecule?
**A.** Its value is 0.52^a.
